Reference: PMC12268434 (ACS Omega, 2025)

Tested on: U-87 MG glioma cells
Assay: CCK-8 cell viability assay, U-87 MG
Assay type: cell-based
Conditions: Homo sapiens, read-out: cell viability at 0.3 μM

## COc1cccc2c1C(=O)c1c(O)c3c(c(O)c1C2=O)C[C@@](O)(C(=O)CO)C[C@@H]3O[C@H]1C[C@H](N)[C@H](O)[C@H](C)O1 [DOX, doxorubicin]
  viability at 0.3 µM: 49.6 ± 1.9%
